PubChem BioAssay AID1486 (The Scripps Research Institute Molecular Screening Center, 2009)
Only a part is listed here, and it is no random draw. Activity calls are given as the source filed them.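 Rule for the calls: active = inhibition above a per-campaign cutoff, the mean inhibition of all tested compounds plus 3 SD (cut at about 27% in these data); inactive = the rest.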

Assay: parental Ba/F3 cell viability inhibition, counter-screen for JAK2V617F inhibitor project, murine pro-B, CellTiter-Glo luminescence (AID 1486);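 note: 0% = DMSO wells and 100% = JAK Inhibitor I control wells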
Details: CellTiter-Glo ATP luminescence, at 5.6 µM, stronger effect = higher value
With `COc1ccccc1OP(C)(=O)Nc1ccccc1` (stereo not drawn) the inhibition was inactive: 5.88%. For `CP(=O)(Nc1ccccc1Br)Oc1ccccc1` (stereo not drawn), the inhibition was inactive: 7.7%. For `CP(=S)(Nn1cnnc1)Oc1ccccc1` (stereo not drawn), the inhibition was inactive: 3.28%. In the case of `Cc1cc(C)cc(OP(C)(=O)Nc2ccc(SC(F)(F)F)cc2)c1` (stereo not drawn), the inhibition is reported as inactive: 3.52%. For `CCc1ccc(OP(C)(=O)N2CCN(c3ccc([N+](=O)[O-])cc3)CC2)cc1` (stereo not drawn), the inhibition was inactive: 2.59%. For `CP(=O)(NC(=O)Nc1ccccc1)Oc1ccccc1` (stereo not drawn), the inhibition was inactive: 5.22%. In the case of `CP(=O)(Oc1ccccc1)OC(c1ccccc1)C(F)(F)F` (stereo not drawn), the inhibition is reported as inactive: 6.95%. In the case of `CP(=O)(Nc1ccc(SC(F)(F)F)cc1)Oc1ccc(Cl)cc1` (stereo not drawn), the inhibition is reported as inactive: -2.11%. With `Cc1cccc(C)c1OP(C)(=O)Nc1ccc(SC(F)(F)F)cc1` (stereo not drawn) the inhibition was inactive: 0.18%. With `CP(=O)(Nc1ccccn1)Oc1ccc(Cl)cc1` (stereo not drawn) the inhibition was inactive: 0.46%. For `CCOP(C)(=S)SCC(=O)NC(C)C(=O)O` (stereo not drawn), the inhibition was inactive: 1.1%. In the case of `CCOC(=O)c1ccc(NP(C)(=O)Oc2ccc(OC)cc2)cc1` (stereo not drawn), the inhibition is reported as inactive: 8.66%. In the case of `CCN(CC)CCCOC(=O)C(O)(c1ccccc1)c1ccccc1`, the inhibition is reported as inactive: 4.97%. With `Cc1cccc(C)c1OP(C)(N)=O` (stereo not drawn) the inhibition was inactive: 3.4%. In the case of `CC(C)(C)c1ccc(OP(C)(=O)Nc2ccc(SC(F)(F)F)cc2)cc1` (stereo not drawn), the inhibition is reported as inactive: 6.23%. For `O=[N+]([O-])c1ccc2c(c1)C=Nc1ccccc1O2`, the inhibition was inactive: 5.75%. In the case of `COc1ccc(OP(C)(=O)Nc2cccc(F)c2)cc1` (stereo not drawn), the inhibition is reported as inactive: 4.19%. With `COc1ccccc1OP(C)(=O)Nc1cc(Cl)ccc1C` (stereo not drawn) the inhibition was inactive: 5.74%. In the case of `Cc1cc(C)cc(OP(C)(N)=O)c1` (stereo not drawn), the inhibition is reported as inactive: 8.61%. With `CCOC(=O)c1ccc(NP(C)(=O)Oc2ccccc2)cc1` (stereo not drawn) the inhibition was inactive: 2.45%. In the case of `Cc1ccc(NP(C)(=O)Oc2ccccc2)c(C)c1` (stereo not drawn), the inhibition is reported as inactive: 2.39%. For `COc1ccccc1OP(C)(=O)Nc1ccc(C)cc1` (stereo not drawn), the inhibition was inactive: 5.22%. For `O=C(O)c1cccc(Nc2c([N+](=O)[O-])cc([N+](=O)[O-])cc2[N+](=O)[O-])c1`, the inhibition was inactive: 0.04%. For `CC1=NCCc2c1[nH]c1ccccc21.O=[N+]([O-])c1cc([N+](=O)[O-])c(O)c([N+](=O)[O-])c1`, the inhibition was inactive: 3.61%. With `Cc1cc(C)cc(OP(C)(=O)Nc2ccc(C)cc2C)c1` (stereo not drawn) the inhibition was inactive: 8.44%. With `CCOC(=O)c1ccc(NP(C)(=O)Oc2cc(C)cc(C)c2)cc1` (stereo not drawn) the inhibition was inactive: -0.01%. For `COc1ccccc1OP(C)(=O)Nc1cccc(Br)c1` (stereo not drawn), the inhibition was inactive: -6.59%. With `CP(=O)(Nc1cccc(Br)c1)Oc1ccccc1` (stereo not drawn) the inhibition was inactive: 6.83%. With `Cc1cc(C)cc(OP(C)(=O)Nc2ccccn2)c1` (stereo not drawn) the inhibition was inactive: 5.31%. In the case of `Cc1ccc(C)c(NP(C)(=O)Oc2ccccc2)c1` (stereo not drawn), the inhibition is reported as inactive: 3.98%. For `O=[N+]([O-])c1cc([N+](=O)[O-])c(-n2nnc3ccccc32)c([N+](=O)[O-])c1`, the inhibition was inactive: 8.39%. With `Cc1nc2ccc3ccccc3c2s1.O=[N+]([O-])c1cc([N+](=O)[O-])c(O)c([N+](=O)[O-])c1` the inhibition was inactive: 2.38%. For `CCOC(=O)C(CC)C1=NC(C)(C)Cc2ccccc21.O=[N+]([O-])c1cc([N+](=O)[O-])c(O)c([N+](=O)[O-])c1` (stereo not drawn), the inhibition was inactive: -0.71%. In the case of `O=[N+]([O-])c1cc([N+](=O)[O-])c(Nc2nnnn2CCO)c([N+](=O)[O-])c1`, the inhibition is reported as inactive: -3.99%. With `CP(=O)(Nc1ccc(SC(F)(F)F)cc1)Oc1ccccc1` (stereo not drawn) the inhibition was inactive: -1.37%. With `CCCOc1ccc(NP(C)(=O)Oc2ccc(Cl)cc2)cc1` (stereo not drawn) the inhibition was inactive: 1.84%. In the case of `CN1CCCCC1COC(=O)C1(O)c2ccccc2CCc2ccccc21` (stereo not drawn), the inhibition is reported as inactive: 5.67%. In the case of `COc1ccccc1OP(C)(=O)Nc1c(C)cccc1C` (stereo not drawn), the inhibition is reported as inactive: 9.1%. With `COc1ccc(NP(C)(=O)Oc2ccccc2OC)cc1` (stereo not drawn) the inhibition was inactive: 3.31%. With `CN(C)CCOC(=O)C(O)(c1ccccc1)C1CCCCC1` (stereo not drawn) the inhibition was inactive: -0.41%. For `COc1ccc(OP(C)(=O)Nc2cccc(Br)c2)cc1` (stereo not drawn), the inhibition was inactive: 3.93%. With `Cc1cc(-c2cccc3ccccc23)c(C)cn1.O=[N+]([O-])c1cc([N+](=O)[O-])c(O)c([N+](=O)[O-])c1` the inhibition was inactive: -3.55%. In the case of `O=[N+]([O-])c1cc([N+](=O)[O-])c(NCC2CCS(=O)(=O)C2)c([N+](=O)[O-])c1` (stereo not drawn), the inhibition is reported as inactive: 1.23%. For `O=[N+]([O-])c1ccc(OP2(=O)COCCO2)cc1` (stereo not drawn), the inhibition was inactive: -0.81%. For `CCOP(C)(=S)SCC(=O)NC(C)(CC)C(=O)O` (stereo not drawn), the inhibition was inactive: 2.86%. In the case of `CP(=O)(Nc1ccc(SC(F)(F)F)cc1)Oc1ccc(F)cc1` (stereo not drawn), the inhibition is reported as inactive: 1.42%. With `Cc1ccccc1NP(C)(=O)Nc1ccccc1C` the inhibition was inactive: 2.84%. With `CP(=O)(Nc1ccc2c(c1)OCCO2)Oc1ccccc1` (stereo not drawn) the inhibition was inactive: 2.93%. In the case of `CC(C)c1ccc(OP(C)(=O)Nc2ccc(SC(F)(F)F)cc2)cc1` (stereo not drawn), the inhibition is reported as inactive: 4.24%. For `CP(=O)(Nc1ccccc1F)Oc1ccccc1` (stereo not drawn), the inhibition was inactive: 1.7%. In the case of `O=C(OCCN1CCN(CCOCc2ccccc2)CC1)C(O)(c1ccccc1)c1ccccc1`, the inhibition is reported as inactive: 4.12%. In the case of `O=C(OC1CN2CCC1CC2)c1ccc([N+](=O)[O-])cc1` (stereo not drawn), the inhibition is reported as inactive: -0.27%. With `COc1ccc(OP(C)(=O)Nc2ccc(SC(F)(F)F)cc2)cc1` (stereo not drawn) the inhibition was inactive: 0.74%. In the case of `CCOC(=O)c1ccc(NP(C)(=O)Oc2ccc(F)cc2)cc1` (stereo not drawn), the inhibition is reported as inactive: -0.29%. For `CCCCCOc1ccc(NP(C)(=O)Oc2ccc(Cl)cc2Cl)cc1` (stereo not drawn), the inhibition was inactive: 0.83%. With `CP(=O)(Nc1ccccc1)Oc1ccc(F)cc1` (stereo not drawn) the inhibition was inactive: -1.3%. With `CCN(CC)CCCOC(=O)C(O)(c1ccccc1)C1CCCCC1` (stereo not drawn) the inhibition was inactive: 5.53%. With `COc1ccc(OP(C)(=O)Nc2ccccc2Br)cc1` (stereo not drawn) the inhibition was inactive: 13.4%. For `COc1ccccc1OP(C)(=O)Nc1ccc(C)c(C)c1` (stereo not drawn), the inhibition was inactive: 4.03%. With `Cc1cc(C)cc(OP(C)(=O)Nc2cccc(C(F)(F)F)c2)c1` (stereo not drawn) the inhibition was inactive: 9.11%. In the case of `CP(=O)(OCCOc1ccccc1)OCCOc1ccccc1`, the inhibition is reported as inactive: 7.69%. For `CP(=O)(Nc1ccc(Cl)cc1Cl)Oc1ccccc1` (stereo not drawn), the inhibition was inactive: 6.45%. For `Cc1nc2ccc3ccccc3c2o1.O=[N+]([O-])c1cc([N+](=O)[O-])c(O)c([N+](=O)[O-])c1`, the inhibition was inactive: 3.51%. For `CN(C)CCOC(=O)C(O)(c1ccccc1)C1CCCC1` (stereo not drawn), the inhibition was inactive: 0.9%. In the case of `COc1ccc(OP(C)(=O)Nc2ccccn2)cc1` (stereo not drawn), the inhibition is reported as inactive: 4.16%. With `COc1ccccc1OP(C)(=O)Nc1ccc(Br)cc1` (stereo not drawn) the inhibition was inactive: -1.03%. For `CCc1ccc(OP(C)(=O)O)cc1`, the inhibition was inactive: 1.23%. For `COc1ccccc1OP(C)(=O)Nc1ccc(C)cc1C` (stereo not drawn), the inhibition was inactive: 0.67%. For `CP(=O)(Nc1ccccn1)Oc1ccccc1` (stereo not drawn), the inhibition was inactive: 4.88%. For `O=[N+]([O-])c1cc([N+](=O)[O-])c(Nc2ccccn2)c([N+](=O)[O-])c1`, the inhibition was inactive: -4.69%. In the case of `Cc1c(NP(C)(=O)Oc2ccc(C(C)C)cc2)c(=O)n(-c2ccccc2)n1C` (stereo not drawn), the inhibition is reported as inactive: 2.85%. In the case of `CCc1ccc(OP(C)(=O)Nc2cccnc2)cc1` (stereo not drawn), the inhibition is reported as inactive: -1.57%. For `CP(=O)(Oc1ccccc1)N1CCOC1=O` (stereo not drawn), the inhibition was inactive: -0.79%. For `O=C(OCCCN1CCCC1)C(O)(c1ccccc1)C1CCCCC1` (stereo not drawn), the inhibition was inactive: 3.65%. With `COc1ccccc1OP(C)(=O)Nc1c(C)n(C)n(-c2ccccc2)c1=O` (stereo not drawn) the inhibition was inactive: 3.38%. With `COc1ccc(OP(C)(=O)Nc2ccc(Br)cc2)cc1` (stereo not drawn) the inhibition was inactive: 1.81%. With `CCN(CC)CC(O)COC(=O)C(O)(c1ccccc1)C1CCCCC1` (stereo not drawn) the inhibition was inactive: 5.15%. For `CN(C)C(=O)c1c([N+](=O)[O-])cc([N+](=O)[O-])cc1[N+](=O)[O-]`, the inhibition was inactive: 0.74%. In the case of `CP(=O)(Nc1ccc(Cl)cc1)Oc1ccc(F)cc1` (stereo not drawn), the inhibition is reported as inactive: 4.35%. With `CC(C)(C)c1ccc(OP(C)(=O)O)cc1` the inhibition was inactive: 1.67%. With `COc1ccccc1OP(C)(=O)Nc1ccccc1Br` (stereo not drawn) the inhibition was inactive: 0.32%. In the case of `CP(=O)(OC12CC3CC(CC(C3)C1)C2)OC12CC3CC(CC(C3)C1)C2`, the inhibition is reported as inactive: 5.75%. With `CCOC(=O)c1ccc(NP(C)(=O)Oc2ccc(Cl)cc2)cc1` (stereo not drawn) the inhibition was inactive: 6.32%.
